# Data reported in patent US20030237103A1, “Methods and compositions for pharmacological and toxicological evaluation of test agents” (priority 2002, published 2003).
# Assays:
# [1] = test system: Sprague Dawley (CD-IGS) rats; assay: Protein excretion in urine of gentamicin-treated rats; details: 240 mg/Kg daily, 7 day protocol
# [2] = test system: Panel, parental and outbred (CD-IGS) rat strains; assay: Clinical chemistry endpoints of gentamicin-treated vs. vehicle rats
substance,measurement,setting,value
gentamicin,sensitivity to gentamicin (protein excretion in urine),[1]; majority (n=11) of CD-IGS rats,resistant
same,sensitivity to gentamicin (protein excretion in urine),[1]; subgroup (n=7) of CD-IGS rats,highly sensitive
same,increase in plasma BUN levels,"[2]; CD-IGS rats, gentamicin vs. vehicle",50%
same,nephrotoxic effects (plasma BUN increase) relative to other strains,"[2]; CD-IGS, on average",resistant
same,"nephrotoxic effects (plasma BUN increase), strain sensitivity",[2]; LEW and F344,most sensitive
same,"nephrotoxic effects (plasma BUN increase), strain sensitivity",[2]; WKY,most resistant
same,plasma BUN or creatinine concentration (indices of renal damage),"[2]; all strains except WKY, 240 mg/Kg/day",statistically significant increase
